Experimental data reported in paper PMC13070491, “Single-nucleus transcriptomics, pharmacokinetics, and pharmacodynamics of CDK4/6 and mTOR inhibition in a Phase 0/1 trial of recurrent high-grade glioma” (Neuro-Oncology, 2025).

System: GB126, GB239 and GB86 patient-derived cell lines
Experiment: In vitro single-cell RNA sequencing, analyses across the cell lines (pseudobulk differential gene expression, GSEA, non-cycling cells)
Format: cell-based, human
Experimental: Patient-derived glioma stem cell lines (GSCs; GB126, GB86, and GB239) were established from resected GBM tumor tissue. Cell lines were genetically profiled for mutations and copy number aberrations using the IvySeq custom gene panel. […] GB239 was derived from a tumor sample included in this Phase 0 trial (tumor sample: 100-0039). All human GSCs were cultured as described previously.[12]
Following the fifth day of drug exposure, cells were harvested, cryopreserved to be processed at a later point, or immediately processed for single-cell RNA sequencing (10x Genomics, 3’ version 3). The single-cell RNA sequencing data were then processed via cellranger count and Seurat. Briefly, cells were filtered out based on the following criteria: minimum number of genes detected >500 and <10 000 with a maximum percentage of mitochondrial genes set to 10%. Statistical assessment was made between the malignant proportions of each cell state using a 2-sided paired t-test.
Descriptive statistics of the clinical data are included in Table 1. Comparisons between groups were conducted using a 2-sided or paired 2-sided t-test, where indicated. P < .05 was considered significant. Multiple hypothesis test corrections (ie, false discovery rate correction) were applied for snRNAseq pseudobulk differential expression analysis.

CN(C)C(=O)c1cc2cnc(Nc3ccc(N4CCNCC4)cn3)nc2n1C1CCCC1 [ribo] showed a log2FoldChange (gene CHAT, ribociclib versus control (DMSO)) of -1.043, a log2FoldChange (gene CHEK1, ribociclib versus control (DMSO)) of -1.116 and a log2FoldChange (gene CHRDL2, ribociclib versus control (DMSO)) of -1.0334. For the same compound, the log2FoldChange (gene CHRNA5, ribociclib versus control (DMSO)) was -1.177, the log2FoldChange (gene CHST1, ribociclib versus control (DMSO)) was -1.011 and the log2FoldChange (gene CKAP2, ribociclib versus control (DMSO)) was -1.032. For the same compound, the “log2FoldChange CLEC3A” value (gene CLEC3A, ribociclib versus control (DMSO)) was 1.401, the log2FoldChange (gene CLGN, ribociclib versus control (DMSO)) was -1.046 and the log2FoldChange (gene CLN6, ribociclib versus control (DMSO)) was -1.223. It also gave a log2FoldChange (gene CLUL1, ribociclib versus control (DMSO)) of -1.122, a log2FoldChange (gene CNTLN, ribociclib versus control (DMSO)) of -1.032 and a log2FoldChange (gene CRYBB3, ribociclib versus control (DMSO)) of 1.002. It also gave a log2FoldChange (gene CSTF3-DT, ribociclib versus control (DMSO)) of -1.225, a log2FoldChange (gene CTCFL, ribociclib versus control (DMSO)) of -1.08 and a log2FoldChange (gene CTSV, ribociclib versus control (DMSO)) of -1.015. It also gave a log2FoldChange (gene DDB2, ribociclib versus control (DMSO)) of -1.1772, a log2FoldChange (gene DDIAS, ribociclib versus control (DMSO)) of -1.022 and a log2FoldChange (gene DEK, ribociclib versus control (DMSO)) of -1.375. For the same compound, the log2FoldChange (gene DEPDC1-AS1, ribociclib versus control (DMSO)) was -1.123, the log2FoldChange (gene DHRS13, ribociclib versus control (DMSO)) was -1.029 and the “log2FoldChange DNAJC12” value (gene DNAJC12, ribociclib versus control (DMSO)) was 1.413. The log2FoldChange (gene DNMT1, ribociclib versus control (DMSO)) was -1.1, the log2FoldChange (gene DNMT3B, ribociclib versus control (DMSO)) was -1.0461 and the log2FoldChange (gene DSCC1, ribociclib versus control (DMSO)) was -1.04. For the same compound, the log2FoldChange (gene ELF4, ribociclib versus control (DMSO)) was -1.322, the “log2FoldChange EPPK1” value (gene EPPK1, ribociclib versus control (DMSO)) was 1.4048 and the log2FoldChange (gene ETV7, ribociclib versus control (DMSO)) was -1.664. For the same compound, the log2FoldChange (gene EXOSC9, ribociclib versus control (DMSO)) was -1.023, the log2FoldChange (gene EZH2, ribociclib versus control (DMSO)) was -1.144 and the “log2FoldChange FABP4” value (gene FABP4, ribociclib versus control (DMSO)) was 1.432. It also gave a log2FoldChange (gene FAM72B, ribociclib versus control (DMSO)) of -1.051, a log2FoldChange (gene GAREM2, ribociclib versus control (DMSO)) of -1.096 and a log2FoldChange (gene HIST1H2BC, ribociclib versus control (DMSO)) of -1.077. For the same compound, the “log2FoldChange HLA-DRA” value (gene HLA-DRA, ribociclib versus control (DMSO)) was 1.429, the log2FoldChange (gene HMGB1, ribociclib versus control (DMSO)) was -1.03 and the “log2FoldChange HOGA1” value (gene HOGA1, ribociclib versus control (DMSO)) was 1.382. For the same compound, the log2FoldChange (gene HTR1D, ribociclib versus control (DMSO)) was -1.006, the “log2FoldChange HTR2A” value (gene HTR2A, ribociclib versus control (DMSO)) was 1.369 and the log2FoldChange (gene ICA1, ribociclib versus control (DMSO)) was 1.015. It also gave a log2FoldChange (gene KCNT1, ribociclib versus control (DMSO)) of -1.142, a log2FoldChange (gene KIAA1211L, ribociclib versus control (DMSO)) of 1.012 and a log2FoldChange (gene KIF20B, ribociclib versus control (DMSO)) of -1.0525. The log2FoldChange (gene KPNA2, ribociclib versus control (DMSO)) was -1.137, the log2FoldChange (gene LAMC3, ribociclib versus control (DMSO)) was -1.019 and the “log2FoldChange LINC00299” value (gene LINC00299, ribociclib versus control (DMSO)) was 1.338. The “log2FoldChange LINC00452” value (gene LINC00452, ribociclib versus control (DMSO)) was 1.339, the “log2FoldChange LINC00710” value (gene LINC00710, ribociclib versus control (DMSO)) was 1.422 and the log2FoldChange (gene LINC00836, ribociclib versus control (DMSO)) was 1.012. The “log2FoldChange LINC01208” value (gene LINC01208, ribociclib versus control (DMSO)) was 1.412, the “log2FoldChange LINC01954” value (gene LINC01954, ribociclib versus control (DMSO)) was 1.371 and the log2FoldChange (gene LINC02290, ribociclib versus control (DMSO)) was 1.014. For the same compound, the “log2FoldChange LINC02767” value (gene LINC02767, ribociclib versus control (DMSO)) was 1.39, the log2FoldChange (gene LINC02775, ribociclib versus control (DMSO)) was 1.012 and the log2FoldChange (gene LKAAEAR1, ribociclib versus control (DMSO)) was -1.045. For the same compound, the log2FoldChange (gene LMNB2, ribociclib versus control (DMSO)) was -1.082, the log2FoldChange (gene LRP1, ribociclib versus control (DMSO)) was 1.0088 and the “log2FoldChange LST1” value (gene LST1, ribociclib versus control (DMSO)) was 1.3665. For the same compound, the log2FoldChange (gene MCM6, ribociclib versus control (DMSO)) was -1.226, the “log2FoldChange MYO7A” value (gene MYO7A, ribociclib versus control (DMSO)) was 1.39 and the log2FoldChange (gene MYO19, ribociclib versus control (DMSO)) was -1.01. The “log2FoldChange NMUR2” value (gene NMUR2, ribociclib versus control (DMSO)) was 1.413, the “log2FoldChange NNMT” value (gene NNMT, ribociclib versus control (DMSO)) was 1.392 and the “log2FoldChange OVCH2” value (gene OVCH2, ribociclib versus control (DMSO)) was 1.393. For the same compound, the log2FoldChange (gene PAQR4, ribociclib versus control (DMSO)) was -1.3195, the log2FoldChange (gene PCDH11X, ribociclib versus control (DMSO)) was 1.0028 and the log2FoldChange (gene PIM1, ribociclib versus control (DMSO)) was -1.008. It also gave a log2FoldChange (gene POGLUT3, ribociclib versus control (DMSO)) of -1.083, a log2FoldChange (gene POLE2, ribociclib versus control (DMSO)) of -1.137 and a log2FoldChange (gene PRC1-AS1, ribociclib versus control (DMSO)) of -1.1038. For the same compound, the log2FoldChange (gene PRTFDC1, ribociclib versus control (DMSO)) was -1.034, the log2FoldChange (gene PURPL, ribociclib versus control (DMSO)) was -1.008 and the log2FoldChange (gene RAB39A, ribociclib versus control (DMSO)) was -1.006. The log2FoldChange (gene RFC2, ribociclib versus control (DMSO)) was -1.015, the log2FoldChange (gene RFC5, ribociclib versus control (DMSO)) was -1.124 and the log2FoldChange (gene RMI2, ribociclib versus control (DMSO)) was -1.054. For the same compound, the log2FoldChange (gene RNASEH2A, ribociclib versus control (DMSO)) was -1.0155, the log2FoldChange (gene RUSC1, ribociclib versus control (DMSO)) was -1.029 and the log2FoldChange (gene SEMA3C, ribociclib versus control (DMSO)) was 1.014. It also gave a log2FoldChange (gene SERPINI2, ribociclib versus control (DMSO)) of 1.018, a log2FoldChange (gene SHISA3, ribociclib versus control (DMSO)) of -1.036 and a log2FoldChange (gene SKP2, ribociclib versus control (DMSO)) of -1.016. The log2FoldChange (gene SLC30A2, ribociclib versus control (DMSO)) was 1.0021, the log2FoldChange (gene SMCO4, ribociclib versus control (DMSO)) was -1.118 and the log2FoldChange (gene SRGAP3-AS4, ribociclib versus control (DMSO)) was 1.012. The log2FoldChange (gene SSRP1, ribociclib versus control (DMSO)) was -1.137, the “log2FoldChange STMN4” value (gene STMN4, ribociclib versus control (DMSO)) was 1.398 and the log2FoldChange (gene STOML3, ribociclib versus control (DMSO)) was -1.027. The log2FoldChange (gene SVIP, ribociclib versus control (DMSO)) was -1.1001, the “log2FoldChange TCAF2” value (gene TCAF2, ribociclib versus control (DMSO)) was 1.391 and the log2FoldChange (gene TFDP1, ribociclib versus control (DMSO)) was -1.008. For the same compound, the log2FoldChange (gene TFPI2, ribociclib versus control (DMSO)) was -1.099, the log2FoldChange (gene TMEM132B, ribociclib versus control (DMSO)) was 1.009 and the log2FoldChange (gene TRAPPC3L, ribociclib versus control (DMSO)) was 1.013. It also gave a log2FoldChange (gene TTPA, ribociclib versus control (DMSO)) of -1.03, a log2FoldChange (gene TUBB4B, ribociclib versus control (DMSO)) of -1.232 and a log2FoldChange (gene TUBG1, ribociclib versus control (DMSO)) of -1.028. The “log2FoldChange WNT9B” value (gene WNT9B, ribociclib versus control (DMSO)) was 1.386, the log2FoldChange (gene Z94721.3, ribociclib versus control (DMSO)) was -1.366 and the log2FoldChange (gene ZBBX, ribociclib versus control (DMSO)) was 1.016.
